IC50 data for 1 compound are collected here from paper PMC5421785, “Citrullination only infrequently impacts peptide binding to HLA class II MHC” (PLoS ONE, 2017).

Amino acid sequences for entries named in this document (tags omitted). Residues count along the entry.
UniProt P01920, 33-261: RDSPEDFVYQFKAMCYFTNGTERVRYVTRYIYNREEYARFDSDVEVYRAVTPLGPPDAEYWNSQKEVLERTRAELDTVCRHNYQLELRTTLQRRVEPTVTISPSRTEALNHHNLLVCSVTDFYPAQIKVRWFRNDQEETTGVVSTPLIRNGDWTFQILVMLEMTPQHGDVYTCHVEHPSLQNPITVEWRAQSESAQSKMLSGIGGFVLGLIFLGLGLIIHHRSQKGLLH

By IC50 is commonly meant the concentration at which inhibition is half-maximal.

In the assay the target is DQB1*03:01 (Homo sapiens, UniProt P01909+P01920). As to the kind of experiment: HLA class II peptide binding, inhibition of radiolabeled peptide binding to purified MHC.

The compound `CC(C)C[C@H](NC(=O)[C@H](CCCCN)NC(=O)[C@H](CC(C)C)NC(=O)[C@@H](NC(=O)[C@H](CC(N)=O)NC(=O)[C@H](CCC(N)=O)NC(=O)[C@H](CCCCN)NC(=O)[C@@H](NC(=O)[C@H](Cc1ccc(O)cc1)NC(=O)[C@H](CCCCN)NC(=O)[C@@H]1CCCN1)C(C)C)[C@@H](C)O)C(=O)N[C@@H](C)C(=O)N[C@H](C(=O)O)[C@@H](C)O` [HA 307–319, reference compound] yielded a half-inhibitory concentration (IC50) of 19.9 µM. In other words, the double-digit micromolar range.
